{"source": "patent US5298508A", "about": "“Irreversible inhibitors of adenosine receptors” (priority 1992, dated 1994)", "target": "T1, central A1 receptors (Rattus norvegicus, UniProt P25099)", "T1 construct": "A1 -adenosine receptors in rat brain membranes; from tissue; host or cells: rat brain membranes", "T1 sequence (P25099 1-326)": "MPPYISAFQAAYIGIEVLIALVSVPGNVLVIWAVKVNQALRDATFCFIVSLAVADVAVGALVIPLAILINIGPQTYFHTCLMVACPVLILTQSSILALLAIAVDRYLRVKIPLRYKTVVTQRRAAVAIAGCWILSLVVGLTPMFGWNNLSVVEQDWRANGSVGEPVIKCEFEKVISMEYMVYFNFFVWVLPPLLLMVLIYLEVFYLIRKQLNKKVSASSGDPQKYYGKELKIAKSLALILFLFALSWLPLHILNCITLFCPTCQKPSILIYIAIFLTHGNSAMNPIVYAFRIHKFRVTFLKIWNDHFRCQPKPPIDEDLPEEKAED", "test": "irreversible inhibition of [125I]APNEA binding after one hour incubation and washout, rat brain membranes", "conditions": "non-chemically reactive ligand used for comparison"}
{"molecule": "CCCn1c(=O)c2[nH]c(-c3ccc(OCC(=O)NCCN)cc3)nc2n(CCC)c1=O", "note": "[Compound 3, reference compound]", "values": [{"measurement": "degree of recovery of [125I]APNEA binding sites", "value": 90, "unit": "%"}]}
